Consider 36 compounds from PubChem BioAssay AID624414 (National Center for Advancing Translational Sciences (NCATS), 2012).

Protein sequences, listed by entry. Tags and fused reporters are not part of them.
UniProt Q9GZU1, whole entry: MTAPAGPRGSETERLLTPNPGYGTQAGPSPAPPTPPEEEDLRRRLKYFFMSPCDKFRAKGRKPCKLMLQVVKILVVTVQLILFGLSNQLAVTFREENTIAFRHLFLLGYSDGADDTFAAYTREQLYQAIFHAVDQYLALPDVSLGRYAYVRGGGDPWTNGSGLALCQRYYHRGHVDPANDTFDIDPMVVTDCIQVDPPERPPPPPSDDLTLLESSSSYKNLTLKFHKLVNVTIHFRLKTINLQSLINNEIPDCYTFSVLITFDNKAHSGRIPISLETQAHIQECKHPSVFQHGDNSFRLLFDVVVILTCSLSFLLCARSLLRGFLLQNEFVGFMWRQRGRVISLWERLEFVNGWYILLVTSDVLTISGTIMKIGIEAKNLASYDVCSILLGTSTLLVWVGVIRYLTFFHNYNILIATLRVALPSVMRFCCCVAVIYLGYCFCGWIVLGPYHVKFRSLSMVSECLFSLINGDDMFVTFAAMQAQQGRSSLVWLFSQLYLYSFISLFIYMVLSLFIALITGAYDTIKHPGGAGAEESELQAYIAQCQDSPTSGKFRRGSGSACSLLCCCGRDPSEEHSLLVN

Where “and” joins values, the source holds several entries; their conditions need not be identical. Equal entries are not always repeated. This is a selection; strong and weak results do not stand in their true shares. Some results for these compounds are left out of this collection, so the calls shown say nothing about other tests. Calls of active or inactive are those of the source. Rule as the data show it: active = activation above about 50%; inconclusive = mostly about 30% to 49%; inactive = weaker than that.

In this assay the target is Mucolipin-1 (Homo sapiens) (UniProt Q9GZU1). The assay can be described thus: qHTS for Agonists of the Human Mucolipin Transient Receptor Potential 1 (TRPML1). Also: 0% is about no effect. Particulars: TRPML1-expressing cells, Ca2+ dye fluorescence, FDSS; active compounds read high. The text has this:
Mutations of human Mucolipin transient receptor potential 1 (TRPML1) cause type IV mucolipidosis (ML4), a devastating neurodegenerative disease in young children. […] Currently, there is no treatment for ML4. […] Under physiological conditions, TRPMLs regulate membrane trafficking by transducing information about PI(3,5)P2 levels into changes in juxtaorganellar Ca2+, thereby triggering membrane fusion/fission events in the late endocytic pathways (endolysosomal trafficking). In addition, TRPML1 mediates release of Fe2+ from late endosomes and lysosomes, which is essential for cellular iron metabolism. Thus, impaired ion (Ca2+ and Fe2+) homeostasis underlies lysosomal dysfunction and ML4 phenotypes. In ML4 cells, the problem is twofold. First, defective Ca2+-dependent membrane trafficking due to TRPML1-deficiency causes accumulation of lipids and other bio-materials in the lysosome. The second strike comes from the lysosomal iron overload (due to impairment of TRPML1's Fe2+ conductivity), which converts the accumulated materials into the nondegradable (resistant to lysosomal degradation) lipofuscin (also called aging pigment) in the lysosome. Lipofuscin accumulation dramatically compromises the functions of lysosomes.
Niemann-Pick type C (NPC) disease is another lysosome storage disease (LSD) with severe neurodegeneration during the childhood. Currently, there is no cure for NPC. […] Thus, TRPML1 is likely to be an essential regulator of lysosome ion homeostasis. We specifically hypothesize that stimulating TRPML1's Fe2+/Ca2+ channel activity in the lysosome using synthetic agonists can alleviate neurodegeneration associated with ML4 or NPC.
To this end, a high throughput screen was developed in a miniaturized format to screen against the Molecular Libraries Small Molecule Repository (MLSMR) to find small molecules that act either as inhibitors or agonist against the TRPML1 channel.
NIH Chemical Genomics Center [NCGC]
NIH Molecular Libraries Probe Centers Network [MLPCN]
Assay Submitter (PI): Haoxing Xu, University of Michigan Ann Arbor
TRPML1-DL cells are dissociated from flasks, counted and, brought up to a density of 500,000 cells per mL of media containing a 1X Tet inducer. Using a Multidrop Combi, 3uL of this cell solution is dispensed to each well of a 1536 TC treated, black, clear bottom hi base plate for a final cell density of 1,500 cells per well. The assay plates are incubated overnight (approximately 16 hours) at 37 degrees C and 5% CO2. Using a Multidrop Combi, 2uL of ABD Ca8 no wash dye plus quencher is added to each well. The assay plates incubate at room temperature in the dark for 45-90 minutes. The assay plate is read on the FDSS using the following protocol: 10 second baseline read, 23nL of compounds and controls are added using 1536 pintool, agonist read for 110 seconds, 1 uL EC80 addition (4uM final 54-4 diluted in media), antagonist read for 110 seconds.
Background: qHTS replaces the single test concentration by a dilution series.
Consider `COc1cccc(C(=O)NCC2(N3CCCCC3)CCCCC2)c1`, for which the activation is inactive: -0.546%.

For the compound `COc1ccc(Cl)cc1C(=O)NCC1(N(C)C)CCCCC1`, the activation is inactive: -1.27%.

Take `COc1ccc(C(=O)NCC2(N(C)C)CCCCC2)cc1Cl`: the activation was inactive: -0.542%.

In the case of `O=C(NCC1(N2CCCCC2)CCCCC1)c1cccc(Cl)c1`, the activation was inactive: 2.62%.

On to `O=C(CBr)c1ccc(Cl)cc1`, for which the activation is inactive: -0.634%.

Take `CN(C)C1(CNC(=O)c2ccc(Br)cc2)CCCCC1`: the activation was inactive: 0.0889%.

As for `COc1cc(C(=O)NCC2(N(C)C)CCCCC2)c([N+](=O)[O-])cc1OC`, the activation is inactive: 0.788%.

As to `C=C(C)C#CC(O)(C(=O)OC1CCN(C)CC1)c1ccccc1` (stereo unspecified), the activation was inactive: -0.0355%.

Consider `Cc1cccc(C(=O)NCC2(N(C)C)CCCCC2)c1`, for which the activation is inactive: -0.693%.

In the case of `COc1cc(C(=O)NCC2(N(C)C)CCCCC2)cc(OC)c1OC`, the activation is inactive: -0.852%.

For `COc1ccc(Br)c(C(=O)NCC2(N3CCCCC3)CCCCC2)c1`, the activation was inactive: 1.96%.

Turning to `CC(C)Oc1ccc(C(=O)NCC2(N(C)C)CCCCC2)cc1`, the activation was inactive: 0.934% and inactive: -0.286%.

For the compound `O=C(OCCN1CCCC1)C(O)(c1ccccc1)c1ccccc1`, the activation is inactive: 0.641%.

Take `CN(C)c1cccc(C(=O)NCC2(N(C)C)CCCCC2)c1`: the activation is inactive: -0.759%.

`COc1cccc(C(=O)NCC2(N3CCOCC3)CCCCC2)c1`: the activation was inactive: 0.711%.

On to `O=C(OC1CN2CCC1CC2)C(CO)(c1ccccc1)c1ccccc1` (stereo unspecified), for which the activation is inactive: -0.103%.

For the compound `CC(C)COc1ccc(C(=O)NCC2(N(C)C)CCCCC2)cc1`, the activation is inactive: -0.0301%.

For the compound `CN(C)C1(CNC(=O)c2cccc(Cl)c2)CCCCC1`, the activation is inactive: 0.247%.

`CCN(CC)CC(C)C(C)OC(=O)C(O)(c1ccccc1)c1ccccc1` (stereo unspecified): the activation was inactive: 0.74%.

Take `CC(C)N1C(=O)CC2(CCN(CCOC(=O)C(O)(c3ccccc3)c3ccccc3)CC2)C1=O`: the activation was inactive: -0.654%.

For `Cc1ccc(C(=O)NCC2(N3CCCCC3)CCCCC2)cc1`, the activation is inactive: 0.45%.

With `CN(C)C1(CNC(=O)c2ccccc2F)CCCCC1`, the activation was inactive: 1.02%.

In the case of `O=C(NCC1(N2CCCCC2)CCCCC1)c1cc([N+](=O)[O-])ccc1Cl`, the activation was inactive: 0.328%.

Turning to `CN1[C@@H]2CC[C@H]1CC(OC(=O)C(O)(c1ccccc1)c1ccccc1)C2` (stereo partly specified), the activation was inactive: 0.406%.

For `C=CCN1CCN(CCOC(=O)C(O)(c2ccccc2)c2ccccc2)CC1`, the activation is inactive: 3.03%.

Regarding `O=C(NCC1(N2CCCCC2)CCCCC1)c1cc(F)c(F)cc1Cl`, the activation is inactive: -0.15%.

Regarding `COc1ccc(C(=O)NCC2(N(C)C)CCCCC2)cc1`, the activation was inactive: 2.07%.

As to `CCOc1cccc(C(=O)NCC2(N(C)C)CCCCC2)c1`, the activation is inactive: 0.309%.

For `CCN1CCCC(OC(=O)C2(O)c3ccccc3C=Cc3ccccc32)C1` (stereo unspecified), the activation is inactive: -0.0359%.

As for `Cc1cc(C(=O)NCC2(N3CCCCC3)CCCCC2)ccc1[N+](=O)[O-]`, the activation was inactive: 0.817%.

`O=C(NCC1(N2CCCCC2)CCCCC1)c1cccc(Br)c1`: the activation was inactive: 1.63%.

With `Cc1ccccc1C(=O)NCC1(N2CCCCC2)CCCCC1`, the activation is inactive: 0.816%.

In the case of `CN(C)C1(CNC(=O)c2ccccc2[N+](=O)[O-])CCCCC1`, the activation was inactive: 1.42%.

As to `CN(C)c1ccc(C(=O)NCC2(N(C)C)CCCCC2)cc1`, the activation was inactive: -0.613%.

For `CN(C)C1CCCC1OC(=O)C(O)(c1ccccc1)c1ccccc1` (stereo unspecified), the activation is inactive: 0.238%.

On to `CCCCOc1ccccc1C(=O)NCC1(N(C)C)CCCCC1`, for which the activation is inactive: 1.08%.
